How the values were obtained:
PBBI rats [1] = test: PBBI neuropathology: lesion volume in brain sections (H&E, TTC staining); conditions: Study 1, H&E stained sections
PBBI rats [2] = test: Neuroscore after PBBI injury; assay type: in vivo, rat; conditions: Study 2; 0.5 mg/kg vs 0.05 and 0.275 mg/kg; 3 and 7 days post PBBI
PBBI rats [3] = test: Fixed-speed rotarod task after PBBI injury; assay type: in vivo, rat; conditions: Study 2; 0.50 mg/kg vs 0.05 and 0.275 mg/kg; 7 days post-PBBI

## YGRKKRRQRRRKLSSIESDV [Tat-NR2B9c]
PBBI rats [1]; 0.5 mg/kg
  extent (volume) of the lesion, trend particularly in the more caudal sections: reduced the extent (i.e., volume) of the lesion
PBBI rats [1]; 5.0 mg/kg
  extent (volume) of the lesion, trend particularly in the more caudal sections: reduced the extent (i.e., volume) of the lesion
PBBI rats [2]
  neuroscore (injury-induced neurological deficits): most effective in reducing injury-induced neurological deficits
PBBI rats [3]
  PBBI-induced motor abnormalities on the rotarod task: more effective than the lower doses

Source: patent US9629892B2, “Treatment of penetrative injury to the brain” (NoNO Inc., priority 2010, dated 2017)
